This note sets out measurements from US20230220038A1, “BRI2 BRICHOS DOMAIN FOR DELIVERY OF PROTEINS INTO CNS NEURONS” (ALPHABETA AB, priority 2021, published 2023).

The subject of the data set is hCMEC/D3 monolayer. As to the kind of experiment: hCMEC/D3 monolayer permeability (in vitro human BBB model), western blot / fluorescence. The following applies: Table 3: 1 μM solution, 24 h incubation; percent of total amount added to the apical side. The protocol:
For the preparation of the hCMEC/D3 cell monolayers, transwell ethylene terephthalate (PET) membrane inserts (24-well, clear, pore size 0.4 μm, CellQART, SABEU GmbH & Co. KG, Germany) were coated with rat tail type I collagen (150 μg/ml in 1× Dulbecco's Phosphate-buffered saline pH 7.4, 1×DPBS, Gibco, Thermo Fisher Scientific, Waltham, Mass.) for 2 h at 37° C. […] Media was changed every second day and the cell monolayer was established by day 6.
Experiments were conducted on culture day 6 by adding different BRICHOS protein constructs, or relevant controls to the apical side of the hCMEC/D3 monolayer. BRICHOS constructs used were rh proSP-C BRICHOS wt, rh proSP-C BRICHOS T187R, rh Bri2 BRICHOS wt monomers and oligomers, rh Bri2 BRICHOS R221E monomers, S-tag-Bri2 BRICHOS monomers and oligomers, mCherry-Bri2 BRICHOS monomers, NT-Bri2 BRICHOS monomers and oligomers and an unresolved mixture of different S-tag-Bri3 BRICHOS assembly states. […] Concentrations used were 1 μM, 0.5 μM, 0.25 μM, 0.1 μM or 0.05 μM; and incubation times were either 2 h or 24 h. […] After the incubation, medium on the apical and basolateral sides of the monolayer was removed and analyzed by Western blotting and the band intensities measured by ImageJ. For the western blot (see below) anti-Bri2 BRICHOS primary antibody (produced in goat and purified in house) in 1:1000 dilution, anti-proSP-C BRICHOS primary antibody (produced in goat and purified in house) at 1:2000 dilution, anti-S-tag primary antibody (S-tag protein HRP conjuc. Novagen, Merck, Germany) at 1:5000 dilution, anti-NT primary antibody (produced in rabbit and purified in house at 1:5000 dilution, anti-RFP primary antibody (produced in mouse, Thermo Fisher Scientific, Waltham, USA) at 1:1000 dilution and anti-human Apolipoprotein A-I primary antibody (produced in goat, Calbiochem, San Diego, Calif.) were used. For mCherry and mCherry-Bri2 BRICHOS monomers, fluorescence intensity of the apical and basolateral medium was recorded at λex 570 nm and λem 610 nm, after which the cells were fixed and analyzed by fluorescence microscopy to analyse the uptake of mCherry or mCherry-Bri2 BRICHOS into cells.
FITC fluorescence was measured at λex 492 nm and λem 518 nm. Insulin permeability was determined by western blot and an anti-Insulin monoclonal primary antibody (Sigma, St. Louis, Mo.) at 1:1000 dilution.
Spectra Multicolor Broad Range protein ladder was used (Thermo Fisher Scientific, Waltham, USA). For the monolayer permeability assessment, 4 μl of protein sample in cell culture media was loaded in the wells. For the cell uptake assessment, 7 μg of cell lysate was loaded.
The membranes were soaked in blocking buffer [5% nonfat dry milk (AppliChem, Germany) diluted in 1×PBS containing 0.1% Tween-20 (Sigma, St. Louis, Mo.) (1×PBS-T)] for 30 min at room temperature and incubated with the primary antibody overnight at 4° C. Membranes were washed 3 times with 0.5% nonfat dry milk in 1×TPBS-T and incubated with horseradish peroxidase conjugated secondary antibody (Goat Anti-Rabbit IgG from abcam, UK in 1:3000 dilution; Rabbit Anti-Goat IgG from Invitrogen, Waltham, Mass. at 1:10000 dilution; Rabbit Anti-Mouse IgG from Invitrogen, Waltham, Ma at 1:10000 dilution; Goat Anti-Human IgG Fc from Invitrogen, Waltham, Ma in 1:1000 dilution) for 1 h at room temperature. Membranes were washed again as above, and also twice with 1×PBS.
For orientation: In western blotting, separated proteins are transferred to a membrane and probed.

In the case of “fluorescein isothiocyanate dextran [FITC-dextran, reference compound]”, the “Concentration % (Mean ± SD) Apical” value was 98.8 ± 1.2%, the “Concentration % (Mean ± SD) Basolateral” value was 1.2 ± 1.2% and the “Concentration % (Mean ± SD) Monolayer” value stood at 0.0 ± 0.0%.
With Human insulin [reference compound], the “Concentration % (Mean ± SD) Apical” value amounted to 85.1%, the “Concentration % (Mean ± SD) Basolateral” value is 13.4% and the “Concentration % (Mean ± SD) Monolayer” value amounted to 1.6%.
